Measurements from patent publication US11547681B2, “N-acylethanolamide derivatives and uses thereof” (ELIEM THERAPEUTICS, INC., priority 2016, dated 2023).

Legend:
[1] = Liver S9 stability, rat; conditions: male, Sprague-Dawley, s9, Half-life (min), control compound
[2] = Liver S9 stability, mouse; conditions: male, CD-1, mouse

C[C@]12CC[C@H]3[C@@H](CCC4=CC(=O)CC[C@@]43C)[C@@H]1CC[C@@H]2O [Testosterone, testosterone]
Half-life [1]: 4.7 min | half-life at 1 μM [2]: 7.1 min
